Data on one compound can be found in patent US20220125856A1, “USE OF OVARIAN-DERIVED HYDROGELS FOR RESTORATION OF REPRODUCTIVE FUNCTION AND HEALTH IN WOMEN” (UNIVERSITY OF PITTSBURGH - OF THE COMMONWEALTH SYSTEM OF …, priority 2019, published 2022).

This data set has as its system ovarian follicles. The data set is described as follows: Chemotherapy-induced POF model, follicle counts post-chemotherapy. As to conditions: busulfan compared with cyclophosphamide across dose titration.

With `CS(=O)(=O)OCCCCOS(C)(=O)=O` [busulfan], the “effect on follicle depletion” value is recorded as “enhanced effect on follicle depletion in comparison to cyclophosphamide”.
